Patent US20040023887A1 (published 2004)

Target: Insulin Receptor (IR) (UniProt P06213 28-956, limits assumed)
Assay: BIAcore competition: IR pre-incubated with competitor, residual binding to immobilised insulin

- Result (RUs): 195 RU
Binder: LCQRLGVGWPGWLSGWCA (other, not shown: large carriers, also called hGH Pept; Fus) [447-MBP]
